Results reported in patent US6358694B1, “Methods of identifying modulators of a prostaglandin receptor” (Merck Frosst Canada & Co., priority 1993, dated 2002).

Sequences of proteins named here, by UniProt entry; tags and fusion partners are left off. A change or cut given only in a name is not applied to a line headed by its entry.
UniProt P43088: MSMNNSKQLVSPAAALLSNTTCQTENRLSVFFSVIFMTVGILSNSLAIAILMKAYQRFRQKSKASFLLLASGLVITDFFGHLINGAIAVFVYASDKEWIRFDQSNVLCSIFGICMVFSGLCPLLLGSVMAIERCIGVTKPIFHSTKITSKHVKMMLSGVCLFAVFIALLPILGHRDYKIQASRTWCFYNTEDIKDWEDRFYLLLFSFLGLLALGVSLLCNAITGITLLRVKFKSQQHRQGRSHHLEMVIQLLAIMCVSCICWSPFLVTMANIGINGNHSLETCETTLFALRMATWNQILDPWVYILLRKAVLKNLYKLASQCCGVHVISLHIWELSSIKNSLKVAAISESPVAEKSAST

Key:
[1] = target: T1, FP receptor (Homo sapiens, UniProt P43088); assay: aequorin luminescence assay in pcDNAIamp-FP-injected Xenopus oocytes; assay type: cell-based; conditions: aequorin-loaded oocytes, compared to PGE2
T1 construct: A long open reading frame (1077 bp) was determined which would result in a 359 amino acid polypeptide; expressed in transfected cells; host or cells: Xenopus laevis oocytes (stage 5-6), nuclear injection of 1-5 ng pcDNAIamp-FP plasmid
Protocol: (§1) Ooctyes were taken from adult females of Xenopus laevis using standard surgical procedure (Colman, A., 1984 In: Transcription and Translation—A Practical Approach, IRL Press). To remove follicle cells, oocytes were treated for 2-3 h with freshly made collagenase (2 mg/ml, type 2, Worthington Biochemical Corp., Freehold, N.J.) in Ca^2+-free ND96 solution (ND96 in mM: NaCl 96, KCl 2, MgCl2 1, HEPES 5, Na-pyruvate 2.5, theophylline 0.5, gentamicin […], +1.8 CaCl2, pH 7.6). Defolliculated stage 5-6 oocytes were selected and maintained in ND96 solution. Ooctye nuclei were injected with 1-5 ng of pcDNAIamp-PP and then incubated at 18° C. for 48 h before challenge with agonist. Functional activity was determined by measurement of either agonist-induced Ca^2+-dependent Cl^− current or light emission in oocytes injected with the Ca^2+-specific photoprotein aequorin (J. Blinks, Friday Harbor Photoproteins, Wash.), (Giladi and Spindel 1991 Biotechniques, 10, pp 744-747). […] Ligand-containing solution was perfused and the current response was recorded. For the luminometric assay, aequorin-loaded oocytes (100 ng/oocyte) were placed individually in cuvettes containing 0.4 ml ND96 and the light emission provoked by ligand addition was recorded using a Bio-Orbit 1251 luminometer (Fisher Sci. Ltd.).

[2] = target: T1, FP receptor; assay: electrophysiological assay (Ca2+-dependent Cl- current) in pcDNAIamp-FP-injected Xenopus oocytes; assay type: cell-based; conditions: perfusion of 10 to 20 nM, oocyte voltage clamped at -60 mV
Protocol: as §1

agonist potency from dose-response of aequorin light emission [1]: more potent agonists
agonist-induced Ca2+-dependent Cl- current response [2]: prominent current responses
Substance: prostaglandin F2α [PGF2α]
